Laboratory results as given in patent publication US10336803B2, “Insulin secreting polypeptides” (Mayo Foundation for Medical Education and Research, priority 2013, dated 2019).

Protein sequences, listed by entry. Tags and fused reporters are not part of them. Lines headed by an entry give the natural chain unless they say otherwise; changes in a name come on top.
UniProt P16066: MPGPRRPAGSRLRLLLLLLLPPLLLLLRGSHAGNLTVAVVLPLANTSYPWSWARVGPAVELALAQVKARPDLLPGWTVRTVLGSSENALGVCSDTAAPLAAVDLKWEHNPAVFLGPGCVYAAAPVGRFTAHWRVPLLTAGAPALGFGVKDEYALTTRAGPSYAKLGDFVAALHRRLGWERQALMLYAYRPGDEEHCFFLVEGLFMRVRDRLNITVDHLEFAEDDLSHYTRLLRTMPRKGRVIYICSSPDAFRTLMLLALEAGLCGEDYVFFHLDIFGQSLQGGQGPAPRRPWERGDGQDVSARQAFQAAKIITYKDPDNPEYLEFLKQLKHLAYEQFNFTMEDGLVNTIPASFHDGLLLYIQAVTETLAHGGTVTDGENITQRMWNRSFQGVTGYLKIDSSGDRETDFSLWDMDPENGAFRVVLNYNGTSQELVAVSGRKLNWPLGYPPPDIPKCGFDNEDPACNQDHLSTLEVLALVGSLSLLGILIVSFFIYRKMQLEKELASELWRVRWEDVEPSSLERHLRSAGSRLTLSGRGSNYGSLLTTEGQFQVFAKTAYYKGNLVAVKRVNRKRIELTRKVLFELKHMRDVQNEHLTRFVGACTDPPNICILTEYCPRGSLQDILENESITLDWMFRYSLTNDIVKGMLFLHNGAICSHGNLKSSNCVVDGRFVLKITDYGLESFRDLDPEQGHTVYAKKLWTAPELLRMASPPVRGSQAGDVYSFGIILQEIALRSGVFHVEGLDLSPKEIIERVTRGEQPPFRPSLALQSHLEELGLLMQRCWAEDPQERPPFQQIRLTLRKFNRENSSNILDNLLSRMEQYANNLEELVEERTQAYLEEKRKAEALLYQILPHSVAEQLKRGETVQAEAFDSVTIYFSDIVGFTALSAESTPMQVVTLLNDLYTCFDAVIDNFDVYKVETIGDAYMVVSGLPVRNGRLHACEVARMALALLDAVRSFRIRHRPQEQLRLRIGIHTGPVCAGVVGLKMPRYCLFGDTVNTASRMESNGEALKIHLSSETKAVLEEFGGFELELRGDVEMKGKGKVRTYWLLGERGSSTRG
UniProt P20594: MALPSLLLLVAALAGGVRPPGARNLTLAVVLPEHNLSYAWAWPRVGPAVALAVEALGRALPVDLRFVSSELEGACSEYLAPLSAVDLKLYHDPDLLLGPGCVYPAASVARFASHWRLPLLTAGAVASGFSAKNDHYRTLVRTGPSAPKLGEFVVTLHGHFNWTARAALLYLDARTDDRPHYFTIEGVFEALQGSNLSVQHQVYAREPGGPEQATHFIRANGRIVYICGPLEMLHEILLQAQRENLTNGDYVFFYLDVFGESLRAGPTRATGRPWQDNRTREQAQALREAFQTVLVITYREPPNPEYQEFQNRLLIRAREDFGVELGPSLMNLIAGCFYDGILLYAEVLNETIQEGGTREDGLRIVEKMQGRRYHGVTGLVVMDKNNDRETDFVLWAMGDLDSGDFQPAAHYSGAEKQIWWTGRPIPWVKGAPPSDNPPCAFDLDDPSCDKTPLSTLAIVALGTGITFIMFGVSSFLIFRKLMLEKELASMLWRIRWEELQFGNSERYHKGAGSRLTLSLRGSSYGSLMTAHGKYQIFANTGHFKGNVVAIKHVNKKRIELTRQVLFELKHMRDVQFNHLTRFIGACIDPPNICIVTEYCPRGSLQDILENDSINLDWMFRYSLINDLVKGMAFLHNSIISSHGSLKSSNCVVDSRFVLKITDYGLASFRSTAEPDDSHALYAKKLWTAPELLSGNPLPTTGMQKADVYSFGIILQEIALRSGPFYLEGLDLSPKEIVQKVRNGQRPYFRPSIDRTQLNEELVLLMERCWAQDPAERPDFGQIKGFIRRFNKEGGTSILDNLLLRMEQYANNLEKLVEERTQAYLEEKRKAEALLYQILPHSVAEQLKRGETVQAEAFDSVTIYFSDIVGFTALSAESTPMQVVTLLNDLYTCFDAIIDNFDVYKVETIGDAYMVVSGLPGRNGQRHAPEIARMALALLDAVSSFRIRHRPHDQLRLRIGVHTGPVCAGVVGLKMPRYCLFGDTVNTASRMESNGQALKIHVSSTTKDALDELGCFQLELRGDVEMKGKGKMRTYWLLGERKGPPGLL

Assays:
normal dogs = experiment: Chimeric polypeptide intravenous infusion in normal dogs: blood glucose, plasma insulin, plasma cGMP; assay type: in vivo, dog; settings: normal dogs (n=2), intravenous infusion 10 or 100 pmol/kg/minute for 45 minutes
normal rats = experiment: Chimeric polypeptide infusion in normal rats: blood glucose and plasma insulin; assay type: in vivo, rat; settings: IV infusion 1 pmol/kg/minute for 210 minutes
[1] = target: GC-A particulate guanylate cyclase receptors (Homo sapiens, UniProt P16066); experiment: Cell cGMP assay in HEK293 cells stably transfected with GC-A; assay type: cell-based; settings: 10^−10 M, 10^−8M, or 10^−6M polypeptide for 10 minutes (FIGS. 14, 15)
[2] = target: GC-B particulate guanylate cyclase receptors (Homo sapiens, UniProt P20594); experiment: Cell cGMP assay in HEK293 cells stably transfected with GC-B; assay type: cell-based; settings: 10^−10 M, 10^−8M, or 10^−6M polypeptide for 10 minutes (FIGS. 14, 15)

Substance	plasma insulin (normal dogs; versus base line (FIG. 7))	plasma glucose (normal dogs; versus base line (FIG. 8))	plasma cGMP (normal dogs; versus base line (FIG. 9))	plasma insulin (normal rats; compared to placebo control rats (FIGS. 10, 12))	blood glucose (normal rats; compared to placebo control rats (FIGS. 11, 13))	activation of GC-A receptors (cGMP levels) [1]	activation of GC-B receptors (cGMP levels) [2]
HGEGTFTSDSEAFIWLGRSPKMVQGSGCFGRK-MDRISSSSGLGCKVLRRH	increase in plasma insulin	reduction in plasma glucose	increase	increased plasma insulin	lower blood glucose	activated the GC-A receptors	but not the GC-B receptors
RMDRIGLSKGCFGLKLDRIGSMSG-LGCKVLRRHHGEGTFTSDSEAFIWLGR	–	–	–	–	–	activated both the GC-A and GC-B receptors	activated both the GC-A and GC-B receptors
